In the data set the test system is UDP-glucuronosyltransferase (Mus musculus). Briefly: in vitro. Particulars: human, liver microsomes. (Microsomes from liver hold many membrane-bound enzymes, among them those of drug oxidation.)

The term half-life denotes the time in which the quantity being followed falls by half. Read a low half-life as rapid decline.

The compound `N#Cc1c(=O)[nH]c(OCc2ccccc2Cl)c2cc(F)ccc12` gave a half-life of 5 min.
